The experiment concerns the target LDHA (Homo sapiens, UniProt P00338). Description: SPR binding assay.

Each structure is given as a SMILES string.

Data on two molecules can be found in publication PMC7830743 (Journal of medicinal chemistry, 2020).

For the molecule `NS(=O)(=O)c1ccc(Cc2c(-c3ccc(F)c(C#CCC4CCCC4)c3)nn(-c3nc(C(=O)O)cs3)c2CC2CC2)cc1F` [Compound 38, 2-(3-(3-(3-Cyclopentylprop-1-yn-1-yl)-4-fluorophenyl)-5-(cyclo-propylmethyl)-4-(3-fluoro-4-sulfamoylbenzyl)-1H-pyrazol-1-yl)-thiazole-4-carboxylic Acid], the residence time is greater than 16600 min.
The value for `NS(=O)(=O)c1ccc(Cc2c(-c3ccc(F)c(C#CC4CCCC4)c3)nn(-c3nc(C(=O)O)cs3)c2CC2CC2)cc1F` [Compound 23, 2-(3-(3-(Cyclopentylethynyl)-4-fluorophenyl)-5-(cyclopropylmethyl)-4-(3-fluoro-4-sulfamoylbenzyl)-1H-pyrazol-1-yl)thiazole-4-carboxylic Acid] was greater than 16600 min.
